## Measured affinities in a library of Ab-95 light chain variants

The target is the same throughout: PDVDLGDISGINAS, from the HR2 region of SARS-CoV-2 spike.

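The parent was found by panning a naive human phage display library on the peptide. Variants in AAYL52 differ from the parent at up to three CDR positions; double and triple changes were sampled at random. The assay is AlphaSeq: two haploid yeast populations carry antibody and antigen on their surface. After mating in shaken culture at 30 °C for 16 h, diploids were selected and their barcode pairs sequenced. Read counts were normalised to the haploid input and turned into Kd by a linear fit to BCL2-family pairs of known affinity, for each replicate. Each pool was mated in three replicate cultures.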

Each scFv is VH, the linker GGGGSGGGGSGGGGS, VL, as in the parent Ab-95, and differs from it in the CDRs of the light chain only.
VH: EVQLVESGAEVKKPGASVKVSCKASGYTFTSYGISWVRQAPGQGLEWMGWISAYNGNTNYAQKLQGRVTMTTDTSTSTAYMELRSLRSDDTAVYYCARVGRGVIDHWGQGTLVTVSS
VL: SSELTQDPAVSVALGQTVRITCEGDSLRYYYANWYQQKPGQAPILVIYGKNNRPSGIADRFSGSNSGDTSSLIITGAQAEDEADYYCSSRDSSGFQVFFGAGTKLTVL

Variants are written as CDR1, CDR2 and CDR3 of the light chain (limits as in the source). Parent: EGDSLRYYYAN, GKNNRPS, SSRDSSGFQVF.
Scale: log10 of Kd in nM, estimated from mating counts; low values are strong binders.
A mean of the replicates is given; it leaves out those without a signal.
"n.d." means that the variant was in the library but no mating with the target was seen in that replicate; the authors take this as a sign of poor binding, and no number exists.

CDR-L1 | CDR-L2 | CDR-L3 | replicates, log10 nM | mean log10 Kd (nM) | signal with controls
EGDSHRYYYAN | GKTNRPS | SSRDSSGFVVF | n.d. / 3.46 / n.d. | 3.46 | 4 of 9 (3.55)
EGDSLRYYHAN | GLNNRPS | SSRDSSGDQVF | 2.43 / 2.74 / 2.35 | 2.51 | 3 of 9 (4.00)
EGDTLRYYYGN | GKNNRPS | QSRDSSGFQVF | n.d. / n.d. / n.d. | n.d. | 0 of 9
EGDSLRYYYAN | DYNLRPS | SSRDSSGFQVF | 3.72 / 3.27 / 3.55 | 3.51 | 1 of 9 (4.06)
ENESLRYYYAN | GKNNRPS | SSIDSSGFQVF | 3.76 / n.d. / n.d. | 3.76 | 3 of 9 (3.54)
EGDSLRYYYAN | GKNNRPS | SSRDSSGFMVF | 2.18 / 2.24 / 1.99 | 2.14 | 1 of 9 (5.05)
EGDSLCYYYAN | GKNNRPH | SSRDSSGFQVH | 3.23 / 3.40 / 3.21 | 3.28 | 3 of 9 (4.49)
EGDSYRYYYAN | GKNNRPS | SSGDSSDFQVF | 4.44 / n.d. / n.d. | 4.44 | 1 of 9 (3.55)
EGDSLRYKYAN | GLNNRPS | SSRDSSGFFVF | 1.67 / 1.57 / 1.21 | 1.48 | 3 of 9 (4.27)
EGDSLRYYYAN | GKNNRPA | SSADSSGFQVF | n.d. / n.d. / n.d. | n.d. | 4 of 9 (3.54)
EVDSLRYYYAN | GKNNRPS | SSRDSEGFQYF | 3.81 / 3.57 / n.d. | 3.69 | 2 of 9 (3.41)
GGDSLRYYYAN | GKNNRPS | PSRDSSGFQPF | n.d. / n.d. / n.d. | n.d. | 3 of 9 (3.76)
EGDSLRYYYAN | GKNNCPS | SSGDSSGFQVT | 3.44 / 4.55 / n.d. | 3.99 | 3 of 9 (4.06)
EKDSLRYYYNN | GKNNRPS | SSRDSSGFQGF | n.d. / n.d. / n.d. | n.d. | 2 of 9 (3.18)
EGDSDRYYYAN | GKNWRPS | SSDDSSGFQVF | n.d. / n.d. / n.d. | n.d. | 2 of 9 (3.73)
EGDSLRYYYAY | GKHNRPS | DSRDSSGFQVF | 4.62 / 4.77 / n.d. | 4.70 | 6 of 9 (4.34)
EGDSLRYYYAN | GKNGRPS | SSRDSQGFRVF | 2.47 / 2.40 / 2.28 | 2.38 | 5 of 9 (4.64)
EGDLLRYYYAN | GKNNRAS | SSRDISGFQVF | n.d. / 3.12 / 3.13 | 3.13 | 3 of 9 (3.93)
EGDSLRYYYAN | GKNGRPS | YSRDSSGFWVF | 3.15 / 2.74 / 1.38 | 2.42 | 4 of 9 (3.53)
EGDSLRYVYAN | EKNNRPS | SSRDSSGFQRF | 2.89 / 2.90 / 3.65 | 3.14 | 3 of 9 (3.66)
EGDSLRYWYAN | GKNNRPS | SSRDSSHFQVF | 4.26 / 4.09 / n.d. | 4.17 | 3 of 9 (4.87)
RKDSLRYYYAN | GKNNRPS | SSRDSTGFQVF | 4.18 / n.d. / n.d. | 4.18 | 0 of 9
LPDSLRYYYAN | GKNNRPS | SSPDSSGFQVF | 4.48 / 4.55 / n.d. | 4.51 | 2 of 9 (4.23)
FGDSRRQYYAN | GKNNRPS | SSRDSSGFQVF | 4.91 / n.d. / n.d. | 4.91 | 2 of 9 (3.06)
EGDSLRYYYAN | GKNNRPS | SSTDSSGFQLF | 2.86 / n.d. / 3.76 | 3.31 | 4 of 9 (3.91)
EGDSLRYYYPN | GKNDDPS | SSRDSSGFQVF | 4.31 / 4.22 / 3.91 | 4.15 | 0 of 9
EGDSLRYYYAN | GPNNRPS | SSRDSSGKQVA | 2.83 / 3.54 / 2.23 | 2.87 | 3 of 9 (3.63)
EGDKLRYYYAN | GKNNRPV | SSRDSSGFQVC | 4.97 / n.d. / n.d. | 4.97 | 3 of 9 (4.05)
EGDSLSYYYAN | GKNNRPS | SSQDSSGFQGF | n.d. / n.d. / n.d. | n.d. | 2 of 9 (3.91)
LGDSLRYYDAN | GKNNRPS | SSRDSSGFQVK | 1.56 / 1.44 / 1.33 | 1.44 | 4 of 9 (4.12)
EGDSLEYYYAN | GKNNRKS | SSRYSSGFQVF | n.d. / n.d. / n.d. | n.d. | 2 of 9 (3.74)
EMDSLRYYYIN | GKNNRPS | SSRDSSGFQFF | 3.78 / n.d. / 4.66 | 4.22 | 5 of 9 (3.53)
EGDSLRYYYAI | GKNNRPS | SSRDSSGKQVQ | 5.43 / n.d. / n.d. | 5.43 | 1 of 9 (4.56)
EGYSLRYYYYN | GKNNRPS | SSRGSSGFQVF | 3.48 / 5.44 / n.d. | 4.46 | 4 of 9 (3.88)
EGDSLRYTYAN | GGNNRPS | SSRDSSGFQVG | 1.47 / 1.34 / 1.08 | 1.30 | 5 of 9 (4.39)
EQDSLRYYYFN | GYNNRPS | SSRDSSGFQVF | n.d. / 3.12 / n.d. | 3.12 | 1 of 9 (2.59)
EGDSLRYLYAN | GKNNCPS | SSEDSSGFQVF | 3.59 / n.d. / n.d. | 3.59 | 5 of 9 (4.11)
EGFSLRYYYAN | GKNNRPS | SSRRSSGFQRF | n.d. / n.d. / n.d. | n.d. | 0 of 9
EGDSLRYYYAN | GKNNRIE | RSRDSSGFQVF | n.d. / n.d. / 4.48 | 4.48 | 4 of 9 (4.47)
EGDSLRYYYWN | GKNNRPS | STRDSSAFQVF | n.d. / n.d. / n.d. | n.d. | 1 of 9 (3.60)
EGDSGRYYYGN | GKNNFPS | SSRDSSGFQVF | 3.93 / 5.52 / n.d. | 4.72 | 5 of 9 (4.84)
EGDSLRYYYAN | GKKNRPC | SRRDSSGFQVF | n.d. / 3.74 / n.d. | 3.74 | 3 of 9 (3.67)

Top 6 of the variants detected in all replicates, tightest first:

{"CDR-L1": "EGDSLRYTYAN", "CDR-L2": "GGNNRPS", "CDR-L3": "SSRDSSGFQVG", "replicates, log10 nM": "1.47 / 1.34 / 1.08", "mean log10 Kd (nM)": "1.30", "signal with controls": "5 of 9 (4.39)"}
{"CDR-L1": "LGDSLRYYDAN", "CDR-L2": "GKNNRPS", "CDR-L3": "SSRDSSGFQVK", "replicates, log10 nM": "1.56 / 1.44 / 1.33", "mean log10 Kd (nM)": "1.44", "signal with controls": "4 of 9 (4.12)"}
{"CDR-L1": "EGDSLRYKYAN", "CDR-L2": "GLNNRPS", "CDR-L3": "SSRDSSGFFVF", "replicates, log10 nM": "1.67 / 1.57 / 1.21", "mean log10 Kd (nM)": "1.48", "signal with controls": "3 of 9 (4.27)"}
{"CDR-L1": "EGDSLRYYYAN", "CDR-L2": "GKNNRPS", "CDR-L3": "SSRDSSGFMVF", "replicates, log10 nM": "2.18 / 2.24 / 1.99", "mean log10 Kd (nM)": "2.14", "signal with controls": "1 of 9 (5.05)"}
{"CDR-L1": "EGDSLRYYYAN", "CDR-L2": "GKNGRPS", "CDR-L3": "SSRDSQGFRVF", "replicates, log10 nM": "2.47 / 2.40 / 2.28", "mean log10 Kd (nM)": "2.38", "signal with controls": "5 of 9 (4.64)"}
{"CDR-L1": "EGDSLRYYYAN", "CDR-L2": "GKNGRPS", "CDR-L3": "YSRDSSGFWVF", "replicates, log10 nM": "3.15 / 2.74 / 1.38", "mean log10 Kd (nM)": "2.42", "signal with controls": "4 of 9 (3.53)"}

Parent in this assay: reference entry 2.31, copy in this library 2.25.
Empty control strains, which show no peptide, gave a signal in 28% of pairings with library AAYL52; the median was 3.91 and 95% of these signals were weaker than 2.90. No background was subtracted. Also given: how often the same scFv was detected with the empty control strains, with their mean in brackets.

Source: Engelhart et al. 2022 (doi:10.1038/s41597-022-01779-4), MIT Lincoln Laboratory and A-Alpha Bio; data file from the FLAb repository.